Laboratory results taken from PubChem BioAssay AID1645887 (National Center for Advancing Translational Sciences (NCATS), 2021).
“And” between values parts separate entries of the source, which are not always exact repeats. Equal entries are not always repeated. The entries are a selection whose mix differs from that of the whole data set. The source made the active and inactive calls. Calls come from the whole dose curve; as a rule, active = well fitted activation curve with a large enough effect; inconclusive = small, poorly fitted or top-dose-only effect, or another doubt; inactive = no such curve, though single readings can be large or run the other way.

Sequences of proteins named here, by UniProt entry; tags and fusion partners are left off.
UniProt Q8WZA2, whole entry: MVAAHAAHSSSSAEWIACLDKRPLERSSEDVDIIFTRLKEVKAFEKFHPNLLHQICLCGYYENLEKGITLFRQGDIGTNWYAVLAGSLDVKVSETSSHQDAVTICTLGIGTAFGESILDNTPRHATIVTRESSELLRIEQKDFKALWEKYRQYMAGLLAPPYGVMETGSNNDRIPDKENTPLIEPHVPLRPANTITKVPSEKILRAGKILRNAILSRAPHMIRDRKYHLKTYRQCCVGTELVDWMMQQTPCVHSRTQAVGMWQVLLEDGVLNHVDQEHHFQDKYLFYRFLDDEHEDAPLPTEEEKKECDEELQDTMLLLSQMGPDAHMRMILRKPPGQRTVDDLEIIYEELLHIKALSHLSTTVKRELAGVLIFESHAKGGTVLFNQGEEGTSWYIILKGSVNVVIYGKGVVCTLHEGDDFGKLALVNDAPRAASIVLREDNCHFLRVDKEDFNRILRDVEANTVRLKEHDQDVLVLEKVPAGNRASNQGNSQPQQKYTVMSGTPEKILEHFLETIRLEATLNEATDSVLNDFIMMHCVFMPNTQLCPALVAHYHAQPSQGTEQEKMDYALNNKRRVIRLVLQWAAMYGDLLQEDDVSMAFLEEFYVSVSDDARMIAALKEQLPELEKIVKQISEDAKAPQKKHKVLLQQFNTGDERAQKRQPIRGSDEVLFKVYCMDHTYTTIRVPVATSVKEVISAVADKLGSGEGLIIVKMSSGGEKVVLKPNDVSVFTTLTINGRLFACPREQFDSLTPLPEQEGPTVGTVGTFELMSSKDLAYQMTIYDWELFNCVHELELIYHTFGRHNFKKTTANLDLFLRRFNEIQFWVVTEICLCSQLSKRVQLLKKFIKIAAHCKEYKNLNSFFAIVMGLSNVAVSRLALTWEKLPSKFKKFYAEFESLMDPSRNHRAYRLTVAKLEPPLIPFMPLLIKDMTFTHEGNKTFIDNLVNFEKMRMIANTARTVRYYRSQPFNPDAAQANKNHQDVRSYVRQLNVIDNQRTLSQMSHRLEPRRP

Biological target: Rap guanine nucleotide exchange factor 4 (Homo sapiens) (UniProt Q8WZA2)
Assay: Validation qHTS for agonist of cAMP-regulated guanine nucleotide exchange factor 4 (EPAC2);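 note: exchange makes BODIPY-GDP fluorescence drop when released from Rap1B; series mostly up to about 150 µM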
Settings: EPAC2 Rap1B BODIPY-GDP exchange, fluorescence; stronger effect = higher value
Text: Principle Investigator: Xiaodong Cheng Ph.D.
The University of Texas Medical Branch, […], TX
In multi-cellular eukaryotic organisms, the effects of cAMP are transduced by two ubiquitously-expressed intracellular cAMP receptors, the classic protein kinase A/cAMP-dependent protein kinase (PKA/cAPK) and the more recently discovered exchange protein directly activated by cAMP/cAMP-regulated guanine nucleotide exchange factor (EPAC/cAMP-GEF). Both PKA and EPAC are ubiquitously expressed in all tissues, and an increase in intracellular cAMP levels will lead to the activation of both PKA and EPAC. Therefore, careful dissections of the individual role and relative contribution of EPAC and PKA within the overall cAMP signaling in various model systems are critical for further elucidating the mechanism of cAMP signaling. To date no EPAC-specific antagonists and agonist, as well as isoform-specific agonists have been reported, and developing EPAC-specific pharmacological probes to determine the physiological functions that EPAC play in the overall cAMP-mediated signaling remains a major challenge within the research field. […]
This qHTS will be used to screen the Molecular Libraries Small Molecule Repository (MLSMR) as a concentration-titration series using the NCGC unique quantitative screening (qHTS) platform to find activators for EPAC1. […] Activators are identified by monitoring the change in fluorescence signal as the exchanged free BODIPY-GDP has a reduced fluorescence compared to Rap1-bound BODIPY-GDP. […]
Briefly, three uL of reagents (100 nM EPAC2, 250 nM RAP1B-BODIPY-GDP, 50 uM GDP) were dispensed into a 1536-well Greiner black solid-bottom medium binding assay plate. […] The assay plates were read at 5 minute intervals for 30 minutes in the ViewLux plate reader using 480nm excitation and 540nm emission filters. […]
% is set by controls: 0 for no effect and ±100 for the full control effect.

Structure (SMILES)	activation
CN(CCCl)CCCl	inactive: -7.47% and inactive: -3.03%
CCC(=O)N(c1ccccc1)C1(COC)CCN(CCc2cccs2)CC1	inactive: 4.74%
CCC(=O)N(c1ccccc1)C1(COC)CCN(CCn2nnn(CC)c2=O)CC1	inactive: -3%
